# Measurements from patent US7067553B2, “Thiourea compounds and the pharmaceutical compositions containing the same” (Pacific Corporation, priority 2000, dated 2006).
# Sequences of proteins named here, by UniProt entry; tags and fusion partners are left off.
# UniProt O35433, whole entry: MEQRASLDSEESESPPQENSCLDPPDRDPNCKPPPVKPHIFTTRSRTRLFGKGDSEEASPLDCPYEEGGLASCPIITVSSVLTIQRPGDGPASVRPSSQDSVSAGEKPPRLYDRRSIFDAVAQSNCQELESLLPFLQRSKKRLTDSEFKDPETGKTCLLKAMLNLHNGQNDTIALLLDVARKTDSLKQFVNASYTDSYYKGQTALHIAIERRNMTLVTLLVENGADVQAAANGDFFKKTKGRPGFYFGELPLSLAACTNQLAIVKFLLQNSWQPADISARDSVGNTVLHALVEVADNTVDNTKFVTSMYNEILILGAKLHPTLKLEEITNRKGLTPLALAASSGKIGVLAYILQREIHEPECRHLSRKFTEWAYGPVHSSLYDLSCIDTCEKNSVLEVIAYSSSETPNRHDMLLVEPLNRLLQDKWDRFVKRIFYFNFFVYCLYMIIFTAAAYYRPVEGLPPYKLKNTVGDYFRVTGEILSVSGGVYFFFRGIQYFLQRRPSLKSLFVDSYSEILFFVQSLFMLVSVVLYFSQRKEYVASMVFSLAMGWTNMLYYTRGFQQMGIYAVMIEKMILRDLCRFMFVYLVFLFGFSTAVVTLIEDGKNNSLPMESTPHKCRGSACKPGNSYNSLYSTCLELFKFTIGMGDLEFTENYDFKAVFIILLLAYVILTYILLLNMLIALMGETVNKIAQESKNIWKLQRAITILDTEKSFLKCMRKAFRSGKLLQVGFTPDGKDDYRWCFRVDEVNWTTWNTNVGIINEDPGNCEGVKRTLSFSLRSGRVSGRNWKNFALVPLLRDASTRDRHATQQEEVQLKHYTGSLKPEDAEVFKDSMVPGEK
# Key:
# vanilloid receptor = vanilloid receptor (Rattus norvegicus, UniProt O35433); assay: 45Ca influx test (calcium uptake) in cultured DRG neurons, capsaicin-stimulated; format: cell-based; conditions: read-out: Calcium Uptake Test(IC50); neonatal SD rat DRG neurons; capsaicin 0.5 μM; 45Ca 10 μCi/ml; 10 min at room temperature; NR: no response
# Male ICR mice [1] = assay: Antiinflammatory activity test: TPA-induced mouse ear edema test; conditions: dose 1 mg/ear topical; TPA 2.5 μg; ear weight 24 h after TPA
# Male ICR mice [2] = assay: Analgesic activity test: mouse writhing test by inducing with phenyl-p-quinone; conditions: dose 1 mg/kg intraperitoneally 30 min before phenyl-p-quinone; writhes vs control
# [3] = biological target: cation channel connected to vanilloid receptor (Rattus norvegicus, UniProt O35433); assay: Channel activity assay (patchclamp test); design: key to the marks not given beside the values; conditions: potency relative to capsazepine
SMILES,IC50 (vanilloid receptor),Patchclamp Test (antagonistic activities) [3],Anti-inflammatory effect (% Inhibition) (Male ICR mice [1]),Analgesic effect (% Inhibition) (Male ICR mice [2])
Cc1ccc(CC(CNC(=S)NCc2ccc(NS(=O)(=O)C(C)C)cc2)COC(=O)C(C)(C)C)cc1C (stereo not drawn),32 µM,,,
Cc1ccc(CC(CNC(=S)NCc2ccc(NS(=O)(=O)c3ccccc3)cc2)COC(=O)C(C)(C)C)cc1C (stereo not drawn),> 50 µM,,,
CCCS(=O)(=O)Nc1ccc(CNC(=S)NCC(COC(=O)C(C)(C)C)Cc2ccc(C)c(C)c2)cc1 (stereo not drawn),4.3 µM,,,

# Continued, in another order:
IC50 (vanilloid receptor),Patchclamp Test (antagonistic activities) [3],SMILES,Anti-inflammatory effect (% Inhibition) (Male ICR mice [1]),Analgesic effect (% Inhibition) (Male ICR mice [2])
11 µM,,Cc1ccc(CC(CNC(=S)NCc2ccc(NS(=O)(=O)C(F)(F)F)cc2)COC(=O)C(C)(C)C)cc1C (stereo not drawn),,
2.5 µM,,CCS(=O)(=O)Nc1ccc(CNC(=S)NCC(COC(=O)C(C)(C)C)Cc2ccc(C)c(C)c2)cc1 (stereo not drawn),,
0.45 µM,++,Cc1ccc(CC(CNC(=S)NCc2ccc(NS(C)(=O)=O)cc2)COC(=O)C(C)(C)C)cc1C (stereo not drawn),34%,50%
